Ab-14 light chain CDR variants: yeast mating affinities

Antigen: PDVDLGDISGINAS, a 14-residue peptide of the SARS-CoV-2 spike HR2 region.

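The starting antibody came from a phage panning campaign against this peptide. Library AAYL50 holds single substitutions and randomly drawn double and triple substitutions in the CDRs. Affinity was read by AlphaSeq, a pooled yeast mating assay with surface-displayed partners. Binding brings cells together so that they mate, and sequencing counts the barcode pairs among the diploids. The ratio of observed to expected reads was calibrated, replicate by replicate, on BCL2-family standards whose Kd was known from biolayer interferometry. Mating was done three times.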

Parent: Ab-14, a human scFv built as VH, three GGGGS repeats, VL. Only the CDRs of the light chain vary.
VH: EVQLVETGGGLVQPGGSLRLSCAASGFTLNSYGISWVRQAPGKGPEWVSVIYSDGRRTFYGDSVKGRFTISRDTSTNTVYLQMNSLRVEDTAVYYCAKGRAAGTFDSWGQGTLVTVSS
VL: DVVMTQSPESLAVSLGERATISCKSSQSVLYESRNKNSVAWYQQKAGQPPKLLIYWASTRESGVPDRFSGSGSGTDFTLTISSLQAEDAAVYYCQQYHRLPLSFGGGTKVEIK

Sequences are complete VL domains. Scale: log10 of Kd in nM, estimated from mating counts; low values are strong binders. Averages over replicates are reported, and they cover detected replicates only. An entry "not detected" has no value in the source: the pair was not observed among the diploids in any replicate. This suggests poor binding but is not conclusive.

| log10 Kd (nM), mean | seen in | VL |
|---|---|---|
| not detected | 0 of 3 | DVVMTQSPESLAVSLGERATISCVSSQSVLYESRNKNSVQWYQQKAGQPPKLLIYWASHRESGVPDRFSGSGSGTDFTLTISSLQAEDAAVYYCQQYHRLPLSFGGGTKVEIK |
| 4.07 | 1 of 3 | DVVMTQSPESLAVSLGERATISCKSSQSVLVESRNKNSVAWYQQKAGQPPKLLIYWPSTRESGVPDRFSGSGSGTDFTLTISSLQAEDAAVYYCQQYHHLPLSFGGGTKVEIK |
| 3.18 | 3 of 3 | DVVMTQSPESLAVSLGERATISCKSSQSVLYESRNKNSVAWYQQKAGQPPKLLIYYASGRESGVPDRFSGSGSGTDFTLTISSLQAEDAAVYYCQQYIRLPLSFGGGTKVEIK |
| 3.23 | 3 of 3 | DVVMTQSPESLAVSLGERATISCKSSQSVLEESRPKNSVVWYQQKAGQPPKLLIYWASTRESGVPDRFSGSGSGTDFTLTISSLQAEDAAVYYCQQYHRLPLSFGGGTKVEIK |
| 2.42 | 3 of 3 | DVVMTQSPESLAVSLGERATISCCSSQSVLYESRNKNSVAWYQQKAGQPPKLLIYWASTRESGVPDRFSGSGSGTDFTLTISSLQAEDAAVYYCPQYHRLPLSFGGGTKVEIK |
| not detected | 0 of 3 | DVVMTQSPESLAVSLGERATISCKSSQSVLYFSRNKNSVAWYQQKAGQPPKLLIYWASTLESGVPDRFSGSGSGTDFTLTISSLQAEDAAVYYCQQYHRLVLSFGGGTKVEIK |
| not detected | 0 of 3 | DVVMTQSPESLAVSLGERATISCKSSQSVLYESRYKNSVAWYQQKAGQPPKLLIYWASTRESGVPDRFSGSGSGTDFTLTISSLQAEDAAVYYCQQYHYLPSSFGGGTKVEIK |
| not detected | 0 of 3 | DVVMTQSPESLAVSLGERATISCKSSYSVLYESRNKNSVAWYQQKAGQPPKLLIYWASTRESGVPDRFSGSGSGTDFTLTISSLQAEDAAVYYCIQYHRLPLLFGGGTKVEIK |
| not detected | 0 of 3 | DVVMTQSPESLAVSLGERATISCKSSQSVLYPSRNKNSVAWYQQKAGQPPKLLIYWASTRETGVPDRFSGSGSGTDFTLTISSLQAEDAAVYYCQNYHRLPLSFGGGTKVEIK |
| not detected | 0 of 3 | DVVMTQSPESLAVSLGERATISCKSSQSVLYPSRNKNSVAWYQQKAGQPPKLLIYWASTRESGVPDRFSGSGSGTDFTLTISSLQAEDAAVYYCFQYHRLPLNFGGGTKVEIK |
| 1.53 | 3 of 3 | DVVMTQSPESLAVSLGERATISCKSSQSVLYLSRNKNSVAWYQQKAGQPPKLLIYWASTRASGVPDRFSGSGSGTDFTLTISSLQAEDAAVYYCQQYHRLPLSFGGGTKVEIK |
| 3.58 | 1 of 3 | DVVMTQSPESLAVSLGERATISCESSQSVLYESRNKNSKAWYQQKAGQPPKLLIYWASTDESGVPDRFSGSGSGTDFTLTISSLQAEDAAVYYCQQYHRLPLSFGGGTKVEIK |
| 1.59 | 2 of 3 | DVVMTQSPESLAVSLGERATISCKSSESVLRESRNKNSVAWYQQKAGQPPKLLIYWASTRESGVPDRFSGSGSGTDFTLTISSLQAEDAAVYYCQQYHRLPFSFGGGTKVEIK |
| not detected | 0 of 3 | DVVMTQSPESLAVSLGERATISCKSSQSVLRESRNKNSVTWYQQKAGQPPKLLIYWASHRESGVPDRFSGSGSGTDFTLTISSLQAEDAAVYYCQQYHRLPLSFGGGTKVEIK |
| 3.00 | 1 of 3 | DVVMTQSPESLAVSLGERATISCKSSQSVLYEPRNKNSVAWYQQKAGQPPKLLIYWASTRESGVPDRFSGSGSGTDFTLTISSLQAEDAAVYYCQIYHRLSLSFGGGTKVEIK |
| 1.53 | 3 of 3 | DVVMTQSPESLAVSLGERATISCKHSQSVHYESRMKNSVAWYQQKAGQPPKLLIYWASTRESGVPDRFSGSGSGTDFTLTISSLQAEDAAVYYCQQYHRLPLSFGGGTKVEIK |
| 1.71 | 3 of 3 | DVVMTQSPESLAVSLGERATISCKSSQEVLYESRNKNHVAWYQQKAGQPPKLLIYWVSTRESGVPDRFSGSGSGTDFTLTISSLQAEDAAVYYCQQYHRLPLSFGGGTKVEIK |
| 1.44 | 3 of 3 | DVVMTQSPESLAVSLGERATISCKSSTSVLYESRNKNSVAWYQQKAGQPPKLLIYWADTRESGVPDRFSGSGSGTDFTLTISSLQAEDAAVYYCQQYHRLPLSFGGGTKVEIK |
| not detected | 0 of 3 | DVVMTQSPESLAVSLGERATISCKSVQSVLYESRNKNSVVWYQQKAGQPPKLLIYWASTRMSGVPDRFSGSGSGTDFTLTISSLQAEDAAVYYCQQYHRLPLSFGGGTKVEIK |
| 4.18 | 1 of 3 | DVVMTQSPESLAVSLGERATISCKSDQSVLYESRNKNSVAWYQQKAGQPPKLLIYWASTRESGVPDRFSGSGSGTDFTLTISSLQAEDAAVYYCWQYHLLPLSFGGGTKVEIK |
| 1.36 | 3 of 3 | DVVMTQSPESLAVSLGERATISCKSSQSVLYESANKNSVAWYQQKAGQPPKLLIYWASTRESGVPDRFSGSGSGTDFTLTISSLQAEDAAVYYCQQYRRLPLHFGGGTKVEIK |
| not detected | 0 of 3 | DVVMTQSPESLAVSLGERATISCKSSCSVLYESRNKNSVAWYQQKAGQPPKLLIYWASTRESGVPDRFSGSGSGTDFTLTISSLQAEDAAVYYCQTYFRLPLSFGGGTKVEIK |
| 2.10 | 3 of 3 | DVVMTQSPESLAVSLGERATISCKFSQSVLYESCNKNSVAWYQQKAGQPPKLLIYWASTRESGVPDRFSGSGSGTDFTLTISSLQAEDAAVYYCSQYHRLPLSFGGGTKVEIK |
| not detected | 0 of 3 | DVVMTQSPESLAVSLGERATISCKSSQSVLYECRNKNSVAWYQQKAGQPPKLLIYWASTRESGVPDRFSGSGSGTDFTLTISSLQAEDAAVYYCQQYHSLILSFGGGTKVEIK |
| not detected | 0 of 3 | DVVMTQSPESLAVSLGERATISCKRSLSVLYESRNKNSVAWYQQKAGQPPKLLIYWASTRESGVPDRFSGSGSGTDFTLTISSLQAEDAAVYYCYQYHRLPLSFGGGTKVEIK |
| not detected | 0 of 3 | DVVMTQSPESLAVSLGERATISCKSSQSVLYESRNLNSVAWYQQKAGQPPKLLIYTASTRESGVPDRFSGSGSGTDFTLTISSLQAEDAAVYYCQQYHRLPLSFGGGTKVEIK |

As a blank, each scFv also met three strains without target: over library AAYL50, 18% of these pairings were detected, typically at 4.19 and seldom below 2.99. Parent in this assay: reference entry 0.65, copy in this library 1.68.

From the AlphaSeq antibody data of Engelhart et al. 2022 (doi:10.1038/s41597-022-01779-4), copy in the FLAb collection.